# B1: SNAP-25 C-terminal SNARE motif, human SNAP-25 residues 141-203 (domain or fragment, UniProt P60880 141-203, looked up)
# chain: ARENEMDENLEQVSGIIGNLRHMALDMGNEIDTQNRQIDRIMEKADSNKTRIDEANQRATKML
# notes: SNAP-25, human, residues 141-203 (C-terminal SNARE motif); also called SNC; SNAP-25 (141-203); source: E. coli, purified
# Molecular target: T1, synaptobrevin SNARE motif, rat synaptobrevin 2 […] (rat)
# T1 construct: synaptobrevin 2, rat, […] (SNARE motif); Uniformly 2H,15N-labelled in the NMR experiment; also called Syb; 2H,15N-Syb; source: E. coli, purified
# Assay: NMR titration; 1H-15N TROSY-HSQC of 2H,15N-labelled synaptobrevin SNARE motif free and incorporated into the SNARE complex assembled from the purified fragments (overnight, 4°C); spectra at 32°C
# Conditions: both partners purified
binder,measurement,value
B1,binding result,binds

# From PMC4040926, “Re-examining how complexin inhibits neurotransmitter release” (eLife, 2014)
